# Reference: US20210046063A1, “NOVEL COMBINATION OF CRIZOTINIB WITH CHLOROQUINE FOR INHIBITION OF DIVERSE LUNG TUMORS” (University of Kentucky Research Foundation, priority 2019, published 2021)
# Tested on: lung cancer cell lines (A549/EML4-ALK, A549, A549TR, H1299, KP-7B)
# Experiment: Apoptosis of lung cancer cells (ICC for active caspase-3, scored by confocal microscopy)
# Format: cell-based
# Settings: 24 h
compound,measurement,setting,value
"C[C@@H](Oc1cc(-c2cnn(C3CCNCC3)c2)cnc1N)c1c(Cl)ccc(F)c1Cl [CZT, Crizotinib]","apoptosis (active caspase-3 positive cells), CZT together with recombinant Par-4","CZT (1 μM) + recombinant Par-4 (100 nM), A549/EML4-ALK, A549, A549TR, H1299, KP-7B cells, FIG. 1A",sensitizes lung cancer cells to apoptosis by Par-4
same,"apoptosis, CQ in conjunction with CZT added directly to cancer cells","combination of CZT (1 μM) and CQ (25 nM), P>0.05, FIG. 1C",does not sensitize them to apoptosis by CQ
